Measurements published in patent publication US6399603B1, “Therapeutic heterocycles” (AstraZeneca AB, priority 1999, dated 2002).

Molecular target: T1, recombinant human caspase-3 (Homo sapiens, UniProt P42574)
T1 construct: individual p17 and p12 subunits were subcloned by PCR into pET21a(+) plasmids; made in house; host or cells: E. coli BL21 (DE3)
T1 sequence (P42574 29-175 limits assumed): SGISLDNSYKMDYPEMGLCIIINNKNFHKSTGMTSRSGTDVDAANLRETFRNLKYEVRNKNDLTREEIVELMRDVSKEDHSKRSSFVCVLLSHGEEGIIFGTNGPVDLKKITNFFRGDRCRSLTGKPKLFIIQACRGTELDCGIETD
T1 sequence (P42574 176-277 limits assumed): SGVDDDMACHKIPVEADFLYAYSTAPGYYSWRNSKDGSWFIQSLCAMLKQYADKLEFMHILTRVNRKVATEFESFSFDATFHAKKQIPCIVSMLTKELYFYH
Test: Caspase-3 Inhibition Assay
Assay type: biochemical
Conditions: slow binding inhibitor analysis; substrate Ac-DEVD-AMC 10 μM; n=100; read-out: apparent affinity constant Ki′ (koff/kon)

With CC(=O)N[C@@H](CC(=O)O)C(=O)N[C@@H](CCC(=O)O)C(=O)N[C@H](C(=O)N[C@H](C=O)CC(=O)O)C(C)C [Ac-DEVD-CHO] the Ki was 6.1 ± 0.3 nM.
